Ki and EC50 data for one compound are collected here from ChEMBL document CHEMBL1138225, “Synthesis and structure-activity relationships of 3,8-diazabicyclo[4.2.0]octane ligands, potent nicotinic acetylcholine receptor agonists” (J Med Chem, 2006).

Chains of the proteins cited; added tags and fusions are not shown. Residues count along the entry.
UniProt P09483, 31-630 limits assumed: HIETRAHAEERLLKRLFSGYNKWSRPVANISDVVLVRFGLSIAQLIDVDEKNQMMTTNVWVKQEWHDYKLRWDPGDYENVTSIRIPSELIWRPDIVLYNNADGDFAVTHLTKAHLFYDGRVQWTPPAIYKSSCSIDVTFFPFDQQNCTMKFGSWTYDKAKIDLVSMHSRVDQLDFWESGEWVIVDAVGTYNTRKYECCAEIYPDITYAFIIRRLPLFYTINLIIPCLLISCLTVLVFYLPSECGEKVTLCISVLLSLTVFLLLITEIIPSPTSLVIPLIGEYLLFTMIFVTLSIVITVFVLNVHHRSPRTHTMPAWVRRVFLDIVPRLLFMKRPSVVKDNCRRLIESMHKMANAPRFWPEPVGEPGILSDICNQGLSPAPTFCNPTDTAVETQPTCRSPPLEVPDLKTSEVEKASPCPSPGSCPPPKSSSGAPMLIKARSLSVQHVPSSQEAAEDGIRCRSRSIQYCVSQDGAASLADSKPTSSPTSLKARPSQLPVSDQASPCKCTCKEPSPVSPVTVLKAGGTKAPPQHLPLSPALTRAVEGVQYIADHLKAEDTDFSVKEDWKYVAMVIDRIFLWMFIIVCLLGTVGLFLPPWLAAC
UniProt P12390, 25-500 limits assumed: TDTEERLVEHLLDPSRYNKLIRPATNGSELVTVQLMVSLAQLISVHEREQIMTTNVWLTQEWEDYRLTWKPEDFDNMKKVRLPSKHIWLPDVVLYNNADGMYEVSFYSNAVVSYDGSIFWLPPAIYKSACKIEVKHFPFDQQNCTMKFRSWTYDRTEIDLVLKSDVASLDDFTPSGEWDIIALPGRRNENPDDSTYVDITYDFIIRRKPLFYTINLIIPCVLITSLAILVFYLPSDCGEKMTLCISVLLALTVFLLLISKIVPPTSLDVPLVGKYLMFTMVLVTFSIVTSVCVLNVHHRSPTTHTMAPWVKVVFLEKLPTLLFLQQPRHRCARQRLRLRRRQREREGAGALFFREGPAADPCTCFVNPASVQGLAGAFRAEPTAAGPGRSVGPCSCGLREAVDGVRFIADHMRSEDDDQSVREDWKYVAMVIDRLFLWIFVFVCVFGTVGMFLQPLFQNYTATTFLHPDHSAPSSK
UniProt P17787, 26-502 limits assumed: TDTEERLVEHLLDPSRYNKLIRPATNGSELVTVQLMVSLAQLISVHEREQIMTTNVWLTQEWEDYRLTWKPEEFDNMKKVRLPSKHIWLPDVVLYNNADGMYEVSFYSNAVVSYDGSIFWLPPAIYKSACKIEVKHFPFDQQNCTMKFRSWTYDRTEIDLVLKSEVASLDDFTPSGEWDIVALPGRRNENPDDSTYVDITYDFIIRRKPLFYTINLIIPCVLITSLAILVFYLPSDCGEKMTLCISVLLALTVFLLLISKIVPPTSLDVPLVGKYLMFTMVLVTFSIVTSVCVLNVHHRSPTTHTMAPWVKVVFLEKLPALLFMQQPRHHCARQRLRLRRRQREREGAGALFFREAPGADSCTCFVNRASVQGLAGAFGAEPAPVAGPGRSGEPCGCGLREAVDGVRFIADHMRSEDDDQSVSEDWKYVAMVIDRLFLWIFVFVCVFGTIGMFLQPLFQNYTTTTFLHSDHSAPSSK
UniProt P43681, 27-627 limits assumed: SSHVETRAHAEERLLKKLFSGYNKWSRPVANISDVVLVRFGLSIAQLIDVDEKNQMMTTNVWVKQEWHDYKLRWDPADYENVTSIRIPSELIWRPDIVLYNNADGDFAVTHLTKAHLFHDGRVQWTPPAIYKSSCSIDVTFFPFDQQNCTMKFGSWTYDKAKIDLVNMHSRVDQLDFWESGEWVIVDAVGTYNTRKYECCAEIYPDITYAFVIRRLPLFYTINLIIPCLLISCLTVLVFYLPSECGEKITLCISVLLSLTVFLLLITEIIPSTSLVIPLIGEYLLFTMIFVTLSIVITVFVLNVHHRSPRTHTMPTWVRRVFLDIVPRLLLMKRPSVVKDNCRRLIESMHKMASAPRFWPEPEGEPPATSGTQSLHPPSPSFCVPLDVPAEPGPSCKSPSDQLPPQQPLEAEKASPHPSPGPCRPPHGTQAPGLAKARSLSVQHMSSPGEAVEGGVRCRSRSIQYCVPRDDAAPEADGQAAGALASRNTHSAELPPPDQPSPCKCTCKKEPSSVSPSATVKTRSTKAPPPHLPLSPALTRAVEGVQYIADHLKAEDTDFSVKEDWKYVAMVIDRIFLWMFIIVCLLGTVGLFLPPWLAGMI
UniProt P30926, 22-498 limits assumed: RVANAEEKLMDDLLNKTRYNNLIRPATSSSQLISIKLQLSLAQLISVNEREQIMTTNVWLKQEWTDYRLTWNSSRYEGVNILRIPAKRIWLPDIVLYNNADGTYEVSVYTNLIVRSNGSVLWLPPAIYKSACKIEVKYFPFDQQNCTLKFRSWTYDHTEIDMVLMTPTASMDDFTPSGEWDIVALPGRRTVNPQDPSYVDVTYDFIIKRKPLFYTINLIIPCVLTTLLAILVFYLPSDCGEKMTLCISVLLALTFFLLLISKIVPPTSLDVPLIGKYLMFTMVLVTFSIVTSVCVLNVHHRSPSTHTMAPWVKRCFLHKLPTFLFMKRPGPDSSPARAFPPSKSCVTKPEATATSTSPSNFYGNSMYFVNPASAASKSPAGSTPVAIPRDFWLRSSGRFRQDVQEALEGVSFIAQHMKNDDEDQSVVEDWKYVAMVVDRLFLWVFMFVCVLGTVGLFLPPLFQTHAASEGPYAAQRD
UniProt P32297, 32-505 limits assumed: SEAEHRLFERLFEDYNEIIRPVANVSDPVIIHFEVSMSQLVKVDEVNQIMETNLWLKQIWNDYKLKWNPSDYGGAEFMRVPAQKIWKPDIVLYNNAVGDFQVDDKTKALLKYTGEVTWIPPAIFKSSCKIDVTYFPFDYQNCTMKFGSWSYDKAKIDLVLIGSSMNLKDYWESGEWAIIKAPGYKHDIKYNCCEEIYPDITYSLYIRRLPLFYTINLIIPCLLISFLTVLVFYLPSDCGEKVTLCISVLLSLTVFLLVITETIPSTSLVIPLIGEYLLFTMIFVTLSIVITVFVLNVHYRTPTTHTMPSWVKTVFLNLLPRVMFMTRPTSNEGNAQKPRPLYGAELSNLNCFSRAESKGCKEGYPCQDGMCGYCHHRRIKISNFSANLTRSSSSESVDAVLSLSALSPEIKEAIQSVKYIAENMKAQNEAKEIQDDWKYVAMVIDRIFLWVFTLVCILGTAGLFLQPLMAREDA

Test [1] deals with Neuronal acetylcholine receptor; alpha4/beta2 (Rattus norvegicus, UniProt P09483+P12390). Nature of the test: Displacement of [3H]cytisine from alpha-4-beta-2 ACHR in rat brain homogenate. In kind it is tissue-based. (Displacement assays read how much labelled ligand stays bound in the presence of the test substance.)
Test [2] concerns the target Neuronal acetylcholine receptor; alpha4/beta2 (Homo sapiens, UniProt P17787+P43681). Nature of the test: Agonist activity at human alpha4beta2 ACHR expressed in HEK293 cells assessed as change in intracellular calcium concentration by FLIPR. A general note: Calcium assays in cells follow changes in intracellular calcium, usually with a dye or a luminescent sensor.
Test [3] addresses Neuronal acetylcholine receptor; alpha3/beta4 (Homo sapiens, UniProt P30926+P32297). Nature of the test: Agonist activity at human alpha-3-beta-4 ACHR expressed in HEK293 cells assessed as change in intracellular calcium concentration by FLIPR.

As to `N/C(=N/O)c1cncc(N2CC[C@@H]3CN[C@@H]3C2)c1`, the Ki (commonly a measure of affinity in units of concentration, obtained from inhibition or displacement) in test [1] came to 0.062 nM. For the same compound, the EC50 (commonly the midpoint of the concentration-response curve) in test [2] is 180 nM; in test [3], 5700 nM.
